Nrf2 inh – blocks Nrf2 signaling. A549 ARE-Fluc reporter, luciferase luminescence, 18-24 h. Potency, µM (doses to about 46 µM), for inactives: at the highest dose activity change, negative = inhibition, hits mostly inhibitors. 360,000 compounds, 2.1% hits; note: potency is the fitted concentration of half-maximal effect; % is set by controls: 0 for no effect and ±100 for the full control effect; nearly all actives have a fitted effect of over 60% in size
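Quantitative HTS in A549 cells stably bearing an antioxidant response element-firefly luciferase construct. Inhibition of Nrf2-driven transcription was scored by luminescence after 18-24 h of compound exposure at 37 °C.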
ClpP mod – qHTS Assay for Activators of ClpP | ATP-dependent Clp protease proteolytic subunit (Bacillus subtilis (strain 168)), P80244 | purified B. subtilis ClpP, FRET peptide cleavage, 20 min | Potency, µM (doses to about 57.5 µM), inactives show at the top dose activity change, negative = active | 340,000 compounds, 1.9% hits | AID 651965, 2013; active = well fitted falling curve with a large enough effect; inconclusive = small, poorly fitted or top-dose-only effect; inactive = no such curve, though single readings can be large or run the other way; note: potency is the fitted concentration of half-maximal effect; the source files actives as falling curves though it sought activators and does not explain the sign; nearly all actives have a fitted effect of over 65% in size
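Purified B. subtilis ClpP, 10 microg/mL final in Tris/HCl pH8 with KCl, BSA, glycerol and Tween-20, cleaved an Abz/nitrotyrosine-quenched decapeptide. Fluorescence (ex 320, em 430) was read at 0 and 20 min at room temperature. Delta was normalized to 5.8 microM ADEP and DMSO/no-enzyme controls.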
miR-21 reporter – raises the signal of a miR-21 reporter; HeLa miR-21 FLuc reporter, luciferase, 48 h; Potency, µM (series often up to 38.3 µM), inactives show top-dose reporter change, positive = more light; 340,000 tested, under 10 active; active = well fitted rising curve with a large enough effect; inconclusive = small, poorly fitted or top-dose-only effect; inactive = no such curve, though single readings can be large or run the other way;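 also: % of control where 0% means no effect; miR-21 action dims this reporter so a rising signal means less miR-21 action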
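Luminescence from a firefly luciferase reporter carrying a miR-21 binding site downstream, stably expressed under a CMV promoter in HeLa cells that make miR-21 endogenously, reports miRNA modulation after 48 h compound exposure up to approximately 40uM final.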
TCR activator – activates T cell receptor signaling | 330,000 tested, under 10 active | Potency, µM (highest dose often 9.22 µM), for the others: top-dose activation of IL-2 secretion, most hits filed as activators | primary human leukocytes, anti-CD3, IL-2 HTRF, 48 h; note: % of control where 0% means no effect
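IL-2 produced over 48 hr by a-CD3 bead-stimulated primary human leukocytes exposed to compounds was detected with a homogeneous time-resolved FRET immunoassay, 665nm acceptor signal after 320nm excitation.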
Nrf2 ARE act – activators of Nrf2 (ARE) signaling | AREc32 ARE-luciferase reporter (MCF7-derived line), luminescence, 24 h | Potency, µM (top dose mostly 46.1 µM), for inactives: at the highest dose activation, hits mostly activators | 410,000 compounds, 0.31% hits; note: potency is the fitted concentration of half-maximal effect; % of control where 0% means no effect; nearly all actives have a fitted effect of over 65% in size
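AREc32_Fluc, 1000 cells/well, OPTI-MEM + 5% FBS, o/n 37 deg C 5% CO2; 23 nL cpd by pin tool, 24 hr; Steady-Glo 30 min RT, luminescence.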
A549 tox – kills or reduces viability of A549 cells in Nrf2 counter-screen; A549 ARE-Fluc cells, CellTiter-Fluor viability, 18-24 h; Potency, µM (titrated, usually from 46 µM), inactives show at the top dose activity change, negative = cytotoxicity, hits mostly inhibitors; 390,000 compounds, 0.16% hits; AID 504648; note: potency is the fitted concentration of half-maximal effect; % is set by controls: 0 for no effect and ±100 for the full control effect
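A549 ARE-Fluc cells in 5% FBS OPTI-MEM, 5000 cells/well, rested 2 h then exposed to compounds in concentration-response for 18-24 h at 37 °C. Viability by CellTiter-Fluor fluorescence (Ex 405/Em 525) after 30 min; luciferase luminescence (BugLite, 15 min, RT) read afterwards.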
Numbers without * were called inactive; ? = inconclusive; . = no result given; [ ] = another dose, or the depositor's remark. Sampled rows, rich in hits. Any-hit rate of the full collection: about 3.7%. Unless noted, calls come from the whole dose curve; as a rule, active = well fitted curve in the direction sought with a large enough effect; inconclusive = small, poorly fitted or top-dose-only effect, or another doubt; inactive = no such curve, though single readings can be large; an effect the other way counts as inactive or inconclusive.

Results follow in this order: Nrf2 inh | ClpP mod | miR-21 reporter | TCR activator | Nrf2 ARE act | A549 tox
N#CC(c1cccc(Cl)c1)c1ccc2c(C(F)(F)F)cc(C(F)(F)F)nc2n1 (centres undefined)
    . | -2% | ? | 2% | 16% | 6.5µM*
COc1ccccc1CN1CC(C(=O)NC2(c3ccccc3)CC2)CCC1=O (centres undefined)
    12% | 32µM* | -11% | -1% | 0% | 1%
CCc1ccc(-c2cc(C(=O)NCc3ccccn3)c3ccccc3n2)cc1
    2% | 14µM* | -21% | -3%[46.1 µM] | 4% | -8%
O=C(NCc1ccccn1)c1cc(-c2ccc(Br)cc2)nc2ccccc12
    8% | ? | -11% | 4%[46.1 µM] | 0% | 2%
Cc1ccc(-c2cc(C(=O)NCc3ccccn3)c3ccccc3n2)cc1
    26% | 14µM* | 1% | -8% | 17% | 3%
Cc1ccc(-c2cc(C(=O)NCCc3ccccn3)c3ccccc3n2)c(C)c1
    -21% | 28µM* | 19% | 1%[46.1 µM] | 5% | -1%
O=C(NCCc1ccccn1)c1cc(-c2cccc3ccccc23)nc2ccccc12
    ? | -27% | 12% | 0%[46.1 µM] | 0% | 0%
CC1(C(=O)NCc2ccccn2)CCN1C(=O)Cc1ccc(Cl)cc1Cl (centres undefined)
    . | -1% | . | . | 0% | .
CCc1cc2c(s1)c1cnn(Cc3ccccc3F)c(=O)c1n2C
    ? | . | . | . | . | 9%
COc1ccc(C(=O)NC(C)c2ccccc2)cc1Br (centres undefined)
    -16% | . | -4% | -5% | 0% | 3%
O=C(Nc1ccc(Br)cn1)c1coc(=O)c(Br)c1
    ? | . | -9% | 10% | 18µM* | -1%
C[C@@H](NC(=O)c1coc(=O)c(Br)c1)c1ccccc1
    ? | 24% | -1% | 12%[46.1 µM] | 11µM* | -12%
O=C(Nc1ccc(Br)cn1)c1cccc(-c2cc3ccccc3oc2=O)c1
    ? | 14µM* | -61% | -1%[46.1 µM] | 3% | -2%
O=C(NCc1ccccn1)c1coc(=O)c(Br)c1
    2% | 16µM* | -2% | -2% | ? | -11%
Cc1ccc(C)c(N/C(N)=N/c2nc(C)cc(C)n2)c1
    -10% | 32µM* | 12% | 11% | 5% | -4%

Filtered by structure, the compounds so far with an aryl methoxy group
Results follow in this order: Nrf2 inh | ClpP mod | miR-21 reporter | TCR activator | Nrf2 ARE act | A549 tox
COc1ccccc1CN1CC(C(=O)NC2(c3ccccc3)CC2)CCC1=O (centres undefined)
    12% | 32µM* | -11% | -1% | 0% | 1%
COc1ccc(C(=O)NC(C)c2ccccc2)cc1Br (centres undefined)
    -16% | . | -4% | -5% | 0% | 3%

The list continues:
Results follow in this order: Nrf2 inh | ClpP mod | miR-21 reporter | TCR activator | Nrf2 ARE act | A549 tox
CCc1ccccc1NC(=O)CC1NCCNC1=O (centres undefined)
    0% | -1% | 0% | . | 0% | -7%
Cc1ccc(CN(C(=O)c2ccc(F)cc2)c2ccccn2)o1
    -7% | -1% | -7% | . | 0% | 3%
CCCCOc1cccc(C(=O)N(Cc2ccc(C)o2)c2ccccn2)c1
    15µM* | 2% | 22% | . | 1% | -23%
COc1ccc(C2=Nn3c(nnc3-c3ccccc3Cl)SC2)cc1OCC1CC1
    21µM* | . | . | 6% | -2% | ?
COc1ccc(OC)c(-c2nnc3n2N=C(c2ccc(OC)c(OCC4CC4)c2)CS3)c1
    15µM* | . | . | -2% | 0% | ?
COc1ccc(C2=Nn3c(nnc3-c3cc(OC)ccc3OC)SC2)cc1
    ? | . | . | . | . | -10%
CSc1cc2c(s1)c1cnn(Cc3cccc(N)c3)c(=O)c1n2C
    -10% | . | . | . | . | -2%
CCOC(=O)c1c(NC(=O)/C=C/c2ccc(C)cc2)sc(C(C)=O)c1C
    -10% | -2% | -7% | . | -1% | 2%
CCOC(=O)c1c(C)[nH]c(C(=O)OCc2nc3ccsc3c(=O)[nH]2)c1C
    . | -3% | . | . | 4% | .
O=C(Nc1ccc(-c2cscn2)cc1)C1CCCN(Cc2ccccc2)C1 (centres undefined)
    -9% | -4% | 11% | -8% | 0% | -14%
Cc1nn(C)c(Cl)c1CN1CCCC(C(=O)Nc2ccc(-c3cscn3)cc2)C1 (centres undefined)
    -16% | 25µM* | 0% | 3% | -1% | 0%
CC(=O)c1ccc(-c2cccc([C@H]3[C@@H]4C=CC[C@@H](C)[C@@H]4C(=O)N3Cc3ccccc3)c2)cc1
    ? | 2% | . | -5%[46.1 µM] | 3% | ?
COc1ccc(N2CCN(C(=O)c3cn(C)c(=O)c4c3c3ccccc3n4C)CC2)cc1
    0% | -23% | 1% | 9% | 0% | -6%
CCOC(=O)N1CCN(C(=O)c2cn(CC(C)C)c(=O)c3c2c2ccccc2n3C)CC1
    2% | 25µM* | -2% | . | 0% | -5%[1.84 µM]
COCCn1cc(C(=O)N2CCC(C)CC2)c2c3ccccc3n(C)c2c1=O
    -3% | 16µM* | -4% | 2% | 0% | -17%
CCOC(=O)N1CCN(C(=O)c2cn(C)c(=O)c3c2c2ccccc2n3C)CC1
    . | 14µM* | 11% | 0% | 0% | 0%
CCCN(CCC)CCCNC(=O)c1cn(CCOC)c(=O)c2c1c1ccccc1n2C
    -7% | 14µM* | 2% | . | 4% | 0%[1.84 µM]
O=C(COC(=O)c1ccccc1OCc1cccc(Br)c1)Nc1ccc(Br)cc1
    . | -4% | . | . | . | .
CCN1CCN(S(=O)(=O)c2ccc(Cl)c(C(=O)NCc3ccco3)c2)CC1
    3% | -2% | . | . | -1% | -2%
COCCSc1nc(N)c(NC(=O)c2ccco2)c(=O)[nH]1
    -2% | 1% | 0% | 1% | -1% | -4%
CC(C)Cn1cc(C(=O)NCc2cccs2)c2c3ccccc3n(C)c2c1=O
    . | 10µM* | -3% | 14% | 0% | 0%
CC(C)Cn1cc(C(=O)N2CCC(C)CC2)c2c3ccccc3n(C)c2c1=O
    -4% | . | 8% | -1% | 2% | 1%
CC(C)Cn1cc(C(=O)N2CCOCC2)c2c3ccccc3n(C)c2c1=O
    . | 16µM* | 0% | . | 0% | -7%
CC(=O)Nc1ccc(N(C(=O)Cn2nnc3ccccc32)C(C(=O)NCc2ccccc2)c2ccc(C)cc2)cc1 (centres undefined)
    -15% | 2% | -18% | . | 5% | -2%
CN(C)CCCn1c2c(c(SCC(=O)Nc3ccc4c(c3)OCCO4)nc1=O)CCCC2
    . | -2% | . | . | 0% | .
CC1=C(C(=O)OCC2CCCO2)C(c2ccccc2OC(C)C)C2=C(CC(c3ccco3)CC2=O)N1 (centres undefined)
    7% | ? | -4% | 2% | 0% | 7%
CCOC(=O)C1=C(C)NC2=C(C(=O)CCC2)C1c1cccnc1 (centres undefined)
    -13% | ? | -4% | . | 0% | -11%
CC1=C(C(=O)OCC2CCCO2)C(c2ccc(C)cc2)C2=C(CCCC2=O)N1 (centres undefined)
    -9% | . | 0% | -3% | 1% | -13%
CC1=C(C(=O)OCC2CCCO2)C(c2cccc(C(F)(F)F)c2)C2=C(CC(c3ccco3)CC2=O)N1 (centres undefined)
    23µM* | ? | 17% | -9% | 4% | ?

Entries listed above shown as hits in Nrf2 ARE act.
| compound | Nrf2 inh | miR-21 reporter | TCR activator | Nrf2 ARE act |
| --- | --- | --- | --- | --- |
| O=C(Nc1ccc(Br)cn1)c1coc(=O)c(Br)c1 | ? | -9% | 10% | 18µM* |
| C[C@@H](NC(=O)c1coc(=O)c(Br)c1)c1ccccc1 | ? | -1% | 12%[46.1 µM] | 11µM* |

Screening results deposited in PubChem BioAssay by National Center for Advancing Translational Sciences (NCATS).
